Tests used:
[1] = Membrane permeation, PAMPORE system (hydrophilic pores in the lipid layer); settings: hydrophilic pores in the lipid layer (paracellular path); 125 or 250 μM, Tris-buffer pH 7.4, 16 hours
[2] = Membrane permeation, traditional artificial membrane without hydrophilic pores (Standard); settings: artificial membrane without hydrophilic pores (transcellular path); 125 or 250 μM, Tris-buffer pH 7.4, 16 hours

Tetra [dimethylamino-methyl]-calix[4]arenes
Membrane permeation (%) PAMPORE [1]: 94%
Membrane permeation (%) Standard [2]: <10%

Source: patent publication US20060083748A1, “Calixarenes for use as excipient for an active substance” (priority 2002, published 2006)
